The source of these data is patent publication US20050096347A1, “Beta3-Adrenoreceptor agonists, agonist compositions and methods of using” (Molecular Design International, Inc., priority 1997, published 2005).

The chains behind the UniProt entries cited, without tags or fusion partners.
UniProt P08588, whole entry: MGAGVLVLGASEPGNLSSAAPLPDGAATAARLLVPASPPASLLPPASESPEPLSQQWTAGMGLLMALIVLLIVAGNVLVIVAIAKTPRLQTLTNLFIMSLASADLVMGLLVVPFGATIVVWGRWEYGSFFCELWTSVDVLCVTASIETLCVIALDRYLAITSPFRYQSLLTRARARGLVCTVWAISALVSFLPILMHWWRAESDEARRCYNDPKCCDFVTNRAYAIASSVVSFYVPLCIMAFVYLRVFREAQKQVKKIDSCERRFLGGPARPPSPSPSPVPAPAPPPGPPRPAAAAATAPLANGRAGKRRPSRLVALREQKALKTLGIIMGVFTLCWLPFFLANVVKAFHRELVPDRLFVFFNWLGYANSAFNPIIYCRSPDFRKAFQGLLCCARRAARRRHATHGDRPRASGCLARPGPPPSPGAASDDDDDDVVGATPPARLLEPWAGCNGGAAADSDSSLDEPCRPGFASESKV
UniProt P13945, whole entry: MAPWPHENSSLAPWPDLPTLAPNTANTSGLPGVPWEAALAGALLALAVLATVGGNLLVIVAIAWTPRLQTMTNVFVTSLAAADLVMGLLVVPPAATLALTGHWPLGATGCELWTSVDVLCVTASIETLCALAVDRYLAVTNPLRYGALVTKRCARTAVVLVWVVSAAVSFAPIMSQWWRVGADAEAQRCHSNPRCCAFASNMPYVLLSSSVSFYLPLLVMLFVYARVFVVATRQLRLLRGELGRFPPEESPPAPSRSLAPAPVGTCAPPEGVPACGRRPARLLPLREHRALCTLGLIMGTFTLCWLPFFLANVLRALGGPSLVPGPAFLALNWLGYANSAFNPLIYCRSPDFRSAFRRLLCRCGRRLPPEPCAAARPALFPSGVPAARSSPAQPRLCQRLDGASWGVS
UniProt P26255, whole entry: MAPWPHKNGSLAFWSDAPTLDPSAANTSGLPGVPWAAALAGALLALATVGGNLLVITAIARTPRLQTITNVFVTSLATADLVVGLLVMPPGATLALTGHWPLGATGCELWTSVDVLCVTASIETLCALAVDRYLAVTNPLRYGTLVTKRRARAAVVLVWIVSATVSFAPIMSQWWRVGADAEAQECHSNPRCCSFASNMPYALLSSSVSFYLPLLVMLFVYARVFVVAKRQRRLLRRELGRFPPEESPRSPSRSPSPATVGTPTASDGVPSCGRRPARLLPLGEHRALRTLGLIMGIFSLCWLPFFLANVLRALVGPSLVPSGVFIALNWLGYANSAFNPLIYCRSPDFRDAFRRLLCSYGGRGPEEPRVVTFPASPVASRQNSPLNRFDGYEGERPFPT

The target in assay [1] is T1, Human β1-AR (Homo sapiens, UniProt P08588). The assay can be described thus: CRE-luciferase reporter gene (CRE-LUC) assay, CHO cells expressing human β1-AR. Conditions: tested form: HCl. For orientation: In a reporter assay the amount or activity of a reporter protein is the signal.
Assay [2] has as its target T2, Human β3-AR (Homo sapiens, UniProt P13945). Briefly: CRE-luciferase reporter gene (CRE-LUC) assay, CHO cells expressing human β3-AR. Conditions: tested form: HCl.
The target of a further assay is Human β2-AR (Homo sapiens, UniProt P07550). The assay can be described thus: CRE-luciferase reporter gene (CRE-LUC) assay, CHO cells expressing human β2-AR. Conditions: tested form: HCl.
The target of assay [3] is T3, rat-β3-AR (Rattus norvegicus, UniProt P26255). Briefly: cAMP accumulation in CHO cells expressing rat β3-AR. In kind it is cell-based. Conditions: tested form: HBr.
In assay [4] the target is T3, rat-β3-AR. The assay can be described thus: Binding in CHO cells expressing rat β3-AR. Conditions: mean ± SEM (n in parentheses), tested form: HBr.
The target in assay [5] is T2, Human β3-AR. Briefly: cAMP radioimmunoassay (cAMP-RIA), CHO cells expressing human β3-AR. In kind it is cell-based. Conditions: percentage of maximal response of R-(−)-isoproterenol (100%).
Assay [6] concerns the target T1, Human β1-AR. The assay can be described thus: cAMP radioimmunoassay (cAMP-RIA), CHO cells expressing human β1-AR. In kind it is cell-based. Conditions: percentage of maximal response of R-(−)-isoproterenol (100%).
In a further assay the target is human β3-Adrenoreceptor (Homo sapiens, UniProt P13945). Briefly: Radioligand competition binding, human β3 adrenoreceptor expressed in CHO cells ([125I]ICYP). Conditions: N = 3-9 (Table 5).

In the case of `COc1c(I)cc(CC2NCCc3ccccc32)cc1I` (stereo not drawn), the “I.A., β1-AR” value at Human β1-AR [1] is on record as 22. The “I.A., β3-AR” value at Human β3-AR [2] is 62. Besides, the “I.A., β2-AR” value on Human β2-AR is on record as 21.
As for `Oc1cc2c(cc1O)C(Cc1ccc(N=C=S)c(I)c1)NCC2` (stereo not drawn), at rat-β3-AR [3] (CHO cells, mean ± SEM (n in parentheses)), the pKact (−log EC50) for cAMP accumulation, rat-β3-AR is 8.61 )†. Also, on rat-β3-AR [3] (relative to that of (−)-isoproterenol, CHO cells expressing rat-β3-AR), the Emax, maximal cAMP accumulation was 104%. Moreover, the pKi (−log Ki) for binding, rat-β3-AR at rat-β3-AR [4] was 5.83 )†.
`COc1c(I)cc(CC2NCCc3cc(O)c(O)cc32)cc1I` (stereo not drawn): the “I.A., Human β3-AR, cAMP-RIA assay” value on Human β3-AR [5] is 120 ± 9%. For the same compound, the “I.A. ± SEM, Human β1-AR, cAMP-RIA assay” value on Human β1-AR [6] was 103 ± 4%. At human β3-Adrenoreceptor, the “pKi ± SEM, Human β3-AR” value turned out to be 7.67 ± 0.24.
